This note sets out measurements from US12180165B2, “Human TLR8-selective agonists” (University of Kansas, priority 2015, dated 2024).

Molecules are shown by their SMILES. Structures can show the parent of a compound that is named as a salt.

The first experiment deals with T1, human TLR8 (Homo sapiens, UniProt Q9NR97).
T1 construct: expressed in transfected cells; host or cells: HEK293
T1 sequence (Q9NR97 27-1041): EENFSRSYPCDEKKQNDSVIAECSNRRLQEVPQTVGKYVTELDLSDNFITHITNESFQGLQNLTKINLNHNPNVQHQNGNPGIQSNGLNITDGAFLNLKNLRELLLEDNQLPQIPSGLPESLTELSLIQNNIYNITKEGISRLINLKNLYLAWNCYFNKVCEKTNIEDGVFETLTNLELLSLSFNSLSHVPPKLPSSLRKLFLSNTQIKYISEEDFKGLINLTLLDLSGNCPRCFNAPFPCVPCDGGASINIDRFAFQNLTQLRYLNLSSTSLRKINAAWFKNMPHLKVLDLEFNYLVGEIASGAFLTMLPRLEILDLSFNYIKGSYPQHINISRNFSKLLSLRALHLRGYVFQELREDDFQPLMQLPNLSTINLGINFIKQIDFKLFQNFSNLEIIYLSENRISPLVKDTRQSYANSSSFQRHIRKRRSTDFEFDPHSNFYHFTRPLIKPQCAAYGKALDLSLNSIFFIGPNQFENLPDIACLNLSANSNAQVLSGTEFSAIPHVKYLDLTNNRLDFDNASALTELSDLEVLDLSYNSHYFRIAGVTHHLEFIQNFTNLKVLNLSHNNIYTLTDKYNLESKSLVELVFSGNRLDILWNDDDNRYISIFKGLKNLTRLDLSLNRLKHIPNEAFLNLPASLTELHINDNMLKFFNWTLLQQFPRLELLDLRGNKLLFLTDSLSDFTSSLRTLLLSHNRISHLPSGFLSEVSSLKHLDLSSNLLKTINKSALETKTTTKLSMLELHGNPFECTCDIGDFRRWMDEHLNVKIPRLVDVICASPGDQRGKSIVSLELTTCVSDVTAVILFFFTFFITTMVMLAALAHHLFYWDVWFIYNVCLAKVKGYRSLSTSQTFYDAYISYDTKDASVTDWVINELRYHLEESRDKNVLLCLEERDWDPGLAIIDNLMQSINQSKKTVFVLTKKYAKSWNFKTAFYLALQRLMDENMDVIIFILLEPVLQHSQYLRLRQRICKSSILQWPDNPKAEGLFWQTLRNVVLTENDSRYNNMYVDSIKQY
Put plainly: Human TLR8-specific reporter gene assay (NF-κB induction, sAP readout in HEK293 cells). The following applies: EC50 in human TLR8-specific reporter gene assay. The class given is cell-based. Background: A reporter such as luciferase makes a cellular process visible.
In the case of `CCCCCc1cc2c(-c3cccc(CN)c3)cccc2nc1N` [Compound 20a, 5-(3-(Aminomethyl)phenyl)-3-pentylquinolin-2-amine], the “TLR8 Agonistic Activity (nM)” value is “entirely inactive”. The same measure, in the same setting: the value for `CCCCCc1cc2cccc(CCCCN)c2nc1N` [Compound 37, 8-(4-Aminobutyl)-3-pentylquinolin-2-amine] was “entirely devoid of activity”.

The same experiment, now with this note: read-out: TLR8 Agonistic Activity.
In the case of `CCCCCc1c(N)nc2ccccc2c1Cc1cccc(CN)c1` [Compound 9a, 4-(3-(Aminomethyl)benzyl)-3-pentylquinolin-2-amine dihydrochloride], the EC50 amounted to 150 nM. On the same count and under the same terms, with `CCCCCc1c(N)nc2ccccc2c1Cc1ccc(CN)cc1` [Compound 9b, 4-(4-(Aminomethyl)benzyl)-3-pentylquinolin-2-amine dihydrochloride] the figure was 120 nM. Still for that read-out and setting: the value for `CCCCCc1c(N)nc2ccccc2c1CCCCN` [Compound 14a, 4-(4-Aminobutyl)-3-pentylquinolin-2-amine dihydrochloride] was 190 nM. On the same count and under the same terms, the value for `CCCCCc1c(N)nc2ccccc2c1CCCCCN` [Compound 14b, 4-(5-Aminopentyl)-3-pentylquinolin-2-amine dihydrochloride] was 250 nM; that for `CCCCCc1cc2c(Cc3cccc(CN)c3)cccc2nc1N` [Compound 18a, 5-(3-(Aminomethyl)benzyl)-3-pentylquinolin-2-amine] was 49 nM; that for `CCCCCc1cc2c(Cc3ccc(CN)cc3)cccc2nc1N` [Compound 18b, 5-(4-(Aminomethyl)benzyl)-3-pentylquinolin-2-amine] was 38 nM. Take `CCCCCc1cc2c(Cc3ccccc3CN)cccc2nc1N` [Compound 18c, 5-(2-(Aminomethyl)benzyl)-3-pentylquinolin-2-amine]: the EC50 was 1000 nM. On the same count and under the same terms, the value for `CCCCCc1cc2c(-c3ccc(CN)cc3)cccc2nc1N` [Compound 20b, 5-(4-(Aminomethyl)phenyl)-3-pentylquinolin-2-amine] was 699 nM; that for `CCCCCc1cc2c(CCCN)cccc2nc1N` [Compound 23, 5-(3-Aminopropyl)-3-pentylquinolin-2-amine] was 91 nM. Same read-out and setting: with `CCCCCc1cc2c(CCCCN)cccc2nc1N` [Compound 34a, 5-(4-Aminobutyl)-3-pentylquinolin-2-amine] the figure was 27 nM; with `CCCCCc1cc2c(CCCCCN)cccc2nc1N` [Compound 34b, 5-(5-Aminopentyl)-3-pentylquinolin-2-amine], 9 nM; with `CCCCCc1cc2c(CCCCCCN)cccc2nc1N` [Compound 34c, 5-(6-Aminohexyl)-3-pentylquinolin-2-amine], 56 nM. With `CCCCCc1cc2c(CCCC(N)=O)cccc2nc1N` [Compound 34d, 4-(2-Amino-3-pentylquinolin-5-yl)butanamide], the EC50 was determined as 2180 nM. Regarding `CCCCCc1cc2c(CCCCNC(=N)N)cccc2nc1N` [Compound 34e, 1-(4-(2-Amino-3-pentylquinolin-5-yl)butyl)guanidine], the EC50 turned out to be 2860 nM.

On to `CCCCCc1cc2cc(CCCCN)ccc2nc1N` [Compound 35a, 6-(4-Aminobutyl)-3-pentylquinolin-2-amine], for which the EC50 was 727 nM. The same measure, in the same setting: the value for `CCCCCc1cc2cc(CCCCCN)ccc2nc1N` [Compound 35b, 6-(5-Aminopentyl)-3-pentylquinolin-2-amine] was 519 nM.

In the case of `CCCCCc1cc2cc(CCCCCCN)ccc2nc1N` [Compound 35c, 6-(6-Aminohexyl)-3-pentylquinolin-2-amine], the EC50 turned out to be 1020 nM.

Regarding `CCCCCc1cc2ccc(CCCCN)cc2nc1N` [Compound 36a, 7-(4-Aminobutyl)-3-pentylquinolin-2-amine], the EC50 was determined as 60 nM. Same read-out and setting: with `CCCCCc1cc2ccc(CCCCCN)cc2nc1N` [Compound 36b, 7-(5-Aminopentyl)-3-pentylquinolin-2-amine] the figure was 50 nM. Same read-out and setting: with `CCCCCc1cc2ccc(CCCCCCN)cc2nc1N` [Compound 36c, 7-(6-Aminohexyl)-3-pentylquinolin-2-amine] the figure was 85 nM. Still for that read-out and setting: with `CCCCCc1cc2c(CCCCCN)cc(CCCCCN)cc2nc1N` [Compound 43, 5,5′-(2-amino-3-pentylquinoline-5,7-diyl)bis(pentan-1-amine)] the figure was 621 nM.

For another experiment, the system named is human PBMCs. Put plainly: Cytokine/chemokine induction in human peripheral blood mononuclear cells (multiplexed bead array). It is filed as cell-based. As to conditions: human PBMCs as well as whole human blood, FIG. 3. The text has this:
Immunoassays for cytokines.
As to `CCCCCc1cc2c(CCCCCN)cccc2nc1N` [Compound 34b, 5-(5-Aminopentyl)-3-pentylquinolin-2-amine], the “potency of cytokine induction relative to 3 and 1” value is on record as “significantly higher”.
